Experimental data as given in patent US8450270B2 (Indiana University Research and Technology Corporation, priority 2008, dated 2013).

Assay: Stability of peptide solutions in syringes (RP-HPLC and SEC, UV 280 nm)
Type: physicochemical
Settings: up to 6 months, 1 mg/mL solution; FIG. 12

loss in peak area (UV 280 nm): No significant loss in peak area
Structure (SMILES): CC(=O)NCC[C@H](NC(=O)[C@H](CO)NC(=O)[C@@H](N)Cc1c[nH]cn1)C(=O)NCC(=O)N[C@H](C(=O)N[C@@H](Cc1ccccc1)C(=O)N[C@H](C(=O)N[C@@H](CO)C(=O)N[C@@H](CC(=O)O)C(=O)N[C@@H](Cc1ccc(O)cc1)C(=O)N[C@@H](CO)C(=O)N[C@@H](CCCCN)C(=O)N[C@@H](Cc1ccc(O)cc1)C(=O)N[C@@H](CC(C)C)C(=O)N[C@@H](CC(=O)O)C(=O)NC(C)(C)C(=O)N[C@@H](CCCNC(=N)N)C(=O)N[C@@H](CCCNC(=N)N)C(=O)N[C@@H](C)C(=O)N[C@@H](C)C(=O)N[C@@H](CC(=O)O)C(=O)N[C@@H](Cc1ccccc1)C(=O)N[C@H](C(=O)N[C@@H](C)C(=O)N[C@@H](Cc1c[nH]c2ccccc12)C(=O)N[C@@H](CC(C)C)C(=O)N[C@@H](CC(C)C)C(=O)N[C@@H](CC(=O)O)C(=O)N[C@@H](CCC(=O)O)C(=O)O)C(C)C)[C@@H](C)O)[C@@H](C)O [SEQ ID NO: 71]
